# Measured values published in US11077209B2, “Use of cerebral nitric oxide donors in the assessment of the extent of brain dysfunction following injury” (OXFORD UNIVERSITY INNOVATION LIMITED, priority 2016, dated 2021).
# Assays:
# [1] = tested on: patients after severe aneurysmal SAH (WFNS grade 3, 4 or 5); details: for percentage change in relative alpha power, median / percentage change in relative delta power, median: (during infusion-baseline)/baseline x100; for mean alpha/delta ratio (ADR) with sodium nitrite: 10 mcg/kg/min iv for one hour, linear mixed effects model
# From the text: Patients aged 18-80 years admitted to the Neurosciences Intensive Care Unit (NICU) at the John Radcliffe Hospital, Oxford after having suffered severe aneurysmal SAH (WFNS grade 3, 4 or 5 at time of presentation) were eligible for inclusion in the study. There were no specific selection criteria apart from grade of SAH, and the absence of any exclusion criteria (see below).
# Following definitive endovascular aneurysm treatment, each patient underwent a two hour period of continuous EEG monitoring (Porti 7 system, Twente Medical Systems International) on one occasion as soon as was practically possible after endovascular securing of the aneurysm.
# Sedative drug levels, muscle relaxants and vasopressors were documented and changes in infusion rates were minimised for the duration of the recording.
# We used a simplified EEG montage that aimed for compromise between stable maintenance of recording and full coverage of all vascular territories. Consequently, 7-13 unipolar EEG electrodes (depending on the presence of external ventricular drains and intracranial pressure (ICP) monitors) at the following positions defined according to the international 10-20 system: Cz, Fz, Pz, Fp1, Fp2, F3, F4, P3, P4, T3, T4, O1, O2. EEG data were digitized at a sampling rate of 2048 Hz, with a high pass filter of 0.5 Hz and a low pass filter of 30 Hz.
# Each surviving patient was followed up at three to six months post-rupture. Telephone follow up was performed for patients who were unable to attend hospital due to their clinical status. Primary outcome was measured by the presence or absence of delayed ischemia. Long term outcome was assessed by modified Rankin scale at 3 months, via structured standardised questions in person or by telephone. The modified Rankin scale, is a commonly used grading system that measures the degree of disability or dependence in the daily activities of people who have suffered a neurological insult. Good outcome is defined as a score of 0-2, whereas poor outcome is defined as ≥3.
# Inc.) code and the EEGLAB v13.4.3b analysis toolbox. Datasets were re-referenced to the average of bilateral mastoid reference electrodes and band pass filtered from 0.5 to 15 Hz using a linear finite impulse response (FIR) filter. Each EEG recording was visually inspected and artefacts were manually removed. Channels showing evidence of excessive amounts of noise were removed from each recording.
# Spectral analysis was carried out using FieldTrip, a MATLAB software toolbox for EEG analysis. Data was windowed into 30-second segments that overlapped by 50%. Time-frequency analysis was performed using a multi-taper spectral estimation using discrete prolate spheroidal (Slepian) sequences with 14 tapers, and fast Fourier transform algorithm for each electrode channel. Five 60-second epochs were selected randomly from the first (baseline) and last thirty minutes of the recording (during infusion). The epochs were separated by at least 60 seconds to avoid autocorrelation. The corresponding frequency distribution in each epoch was identified, which enabled determination of power values in the following frequency bands: delta 1-4 Hz, alpha 8-12 Hz and total low frequency power 1-15 Hz.
# Statistical analysis was carried out using R and the analysis package nlme. We applied a two level linear mixed effects multilevel model to the data to allow for within patient correlation due to repeated measures on each patient over time. […] A qqnorm plot was used to identify any outliers and these were subsequently eliminated from the model. Goodness of fit was assessed via Shapiro-Wilk normality tests on fixed and random effect residuals, and calculation of R^2 for the model.
# [2] = tested on: humans suffering SAH; details: cited from earlier work
# [3] = poor outcome patients (mRS >=3)
smiles,measurement,setting,value
O=NO [sodium nitrite],"post infusion relative alpha power, median","[1]; good outcome group, baseline median 0.10",0.14 uV^2/Hz
same,"during-infusion relative delta power, median","[1]; good outcome patients (mRS 0-2 at 3 months), baseline median 2.88",2.63 uV^2/Hz
same,"percentage change in relative alpha power, median",[1]; good outcome,increases
same,"percentage change in relative delta power, median",[1]; good outcome,decreases
same,"percentage change in alpha/delta ratio (ADR), FIG. 1",[1]; patients that did not develop DCI,increases overall
same,mean alpha/delta ratio (ADR) with sodium nitrite,"[1]; patients that did not get DCI, baseline mean ADR 0.033",0.055
same,"percentage change in alpha/delta ratio (ADR), FIG. 1",[1]; patients that went on to develop DCI,decrease
same,mean alpha/delta ratio (ADR) with sodium nitrite,"[1]; patients who subsequently developed DCI, baseline mean ADR 0.056",0.0050
same,baseline versus during infusion relative alpha power,[1]; [3],no significant differences
same,baseline versus during infusion relative delta power,[1]; [3],no significant differences
same,"percentage change in relative alpha power, median",[1]; poor outcome,no significant differences
same,"percentage change in relative delta power, median",[1]; poor outcome,no significant differences
same,"effects on systemic blood pressure, safety profile",[2],minimal effects
same,"toxicity, safety profile of intravenous sodium nitrite",[2],low toxicity

# Like-named read-outs stand apart in the source and are kept apart here.
